{"source": "patent US20230242663A1", "about": "“COMBINATION THERAPY COMPRISING ANTI-CD137 ANTIBODIES” (Adagene PTE. LTD., priority 2020, published 2023)", "key": {"human PBMCs": {"tested_on": "human PBMCs", "assay": "CD137 expression on the surface of IL-2-stimulated PBMCs (FACS)", "type": "cell-based", "conditions": "100 and 1000 IU/mL of IL-2, 72 hours, in vitro", "procedure": "Fresh human PBMCs were separated from the whole blood by a density gradient centrifugation method using Ficoll Histopaque. […] After 72 hours, PBMCs were collected and CD137 on the cell surface was stained as follows.\nIL-2-stimulated PBMCs were stained with panels of antibodies to detect cell surface markers and thereby identify subsets of cell types in the PBMCs. […] Subsets of cell types in the PBMCs were sorted by fluorescence-activated cell sorting (FACS). CD137 expression on the different subsets of PBMCs was detected, and the data was analyzed using FlowJo software."}, "Lewis lung cancer cells [1]": {"tested_on": "Lewis lung cancer cells", "assay": "Mouse model of Lewis lung cancer, ADG106 with continuous high dose IL-2", "type": "in vivo, C57BL/6 mice", "description": "C57BL/6 mice were transplanted subcutaneously with 5×10^5 Lewis lung cancer cells. […] Tumor growth was monitored twice weekly and reported as tumor volume±SEM over time."}, "Lewis lung cancer cells [2]": {"tested_on": "Lewis lung cancer cells", "assay": "Mouse model of Lewis lung cancer, ADG106 with IL-2 at low frequency high dose or continuous low dose", "type": "in vivo, C57BL/6 mice", "conditions": "for tolerability in mice: intraperitoneal; for anti-tumor activity (tumor volume): alone or with ADG106 2.5 mg/kg twice weekly for 4 doses", "description": "C57BL/6 mice were transplanted subcutaneously with 5×10^5 Lewis lung cancer cells. […] Tumor growth was monitored twice weekly and is reported as tumor volume±SEM over time."}}}
{"substance": "IL-2: cytokine that regulates the activities of lymphocytes; recombinant human IL-2 in Example 1", "values": [{"measurement": "CD137 expression on human NK, NKT, CD8+ and Treg cells", "setting": "human PBMCs", "result": "strongly induced CD137 expression"}, {"measurement": "toxicity in mice", "setting": "Lewis lung cancer cells [1]; continuous high dose IL-2 1.4×10^7 IU/m^2 twice a day, alone or with ADG106 5 mg/kg twice weekly, intraperitoneal", "result": "significant toxicity"}, {"measurement": "anti-tumor activity (tumor volume)", "setting": "Lewis lung cancer cells [1]; continuous high dose IL-2, 1.4×10^7 IU/m^2 twice a day for 13 consecutive days, intraperitoneal", "result": "robust anti-tumor activity"}, {"measurement": "animal death (animals of group)", "setting": "Lewis lung cancer cells [1]; continuous high dose IL-2 alone, on Day 19", "result": "⅛"}, {"measurement": "early termination of all other sick animals (animals of group)", "setting": "Lewis lung cancer cells [1]; continuous high dose IL-2 alone, on Day 22", "result": "⅞"}, {"measurement": "tolerability in mice", "setting": "Lewis lung cancer cells [2]; IL-2 continuous low dose (2.8×10^6 IU/m^2, twice a day for 5 consecutive days)", "result": "well tolerated"}, {"measurement": "anti-tumor activity (tumor volume)", "setting": "Lewis lung cancer cells [2]; IL-2 continuous low dose regimen (2.8×10^6 IU/m^2)", "result": "weak anti-tumor activity"}, {"measurement": "tolerability in mice", "setting": "Lewis lung cancer cells [2]; IL-2 low frequency high dose (twice a day, every 3 days for 4 doses)", "result": "well tolerated"}, {"measurement": "anti-tumor activity (tumor volume)", "setting": "Lewis lung cancer cells [2]; IL-2 low frequency high dose regimen", "result": "weak anti-tumor activity"}]}
